The target in assay [1] is T1, type 1 ryanodine receptor (RyR1) (Oryctolagus cuniculus, UniProt P11716).
T1 construct: Membranes enriched in ryanodine receptors (RyRs) were obtained either from adult rabbit skeletal muscle; from tissue; host or cells: adult rabbit skeletal muscle membranes
As to the kind of experiment: biochemical. Format: binding, rabbit.

By UniProt entry, the sequences of proteins in these tests, tags left out. Where a name states a change or a piece, a line headed by the entry shows the natural chain unless it says otherwise.
UniProt P11716: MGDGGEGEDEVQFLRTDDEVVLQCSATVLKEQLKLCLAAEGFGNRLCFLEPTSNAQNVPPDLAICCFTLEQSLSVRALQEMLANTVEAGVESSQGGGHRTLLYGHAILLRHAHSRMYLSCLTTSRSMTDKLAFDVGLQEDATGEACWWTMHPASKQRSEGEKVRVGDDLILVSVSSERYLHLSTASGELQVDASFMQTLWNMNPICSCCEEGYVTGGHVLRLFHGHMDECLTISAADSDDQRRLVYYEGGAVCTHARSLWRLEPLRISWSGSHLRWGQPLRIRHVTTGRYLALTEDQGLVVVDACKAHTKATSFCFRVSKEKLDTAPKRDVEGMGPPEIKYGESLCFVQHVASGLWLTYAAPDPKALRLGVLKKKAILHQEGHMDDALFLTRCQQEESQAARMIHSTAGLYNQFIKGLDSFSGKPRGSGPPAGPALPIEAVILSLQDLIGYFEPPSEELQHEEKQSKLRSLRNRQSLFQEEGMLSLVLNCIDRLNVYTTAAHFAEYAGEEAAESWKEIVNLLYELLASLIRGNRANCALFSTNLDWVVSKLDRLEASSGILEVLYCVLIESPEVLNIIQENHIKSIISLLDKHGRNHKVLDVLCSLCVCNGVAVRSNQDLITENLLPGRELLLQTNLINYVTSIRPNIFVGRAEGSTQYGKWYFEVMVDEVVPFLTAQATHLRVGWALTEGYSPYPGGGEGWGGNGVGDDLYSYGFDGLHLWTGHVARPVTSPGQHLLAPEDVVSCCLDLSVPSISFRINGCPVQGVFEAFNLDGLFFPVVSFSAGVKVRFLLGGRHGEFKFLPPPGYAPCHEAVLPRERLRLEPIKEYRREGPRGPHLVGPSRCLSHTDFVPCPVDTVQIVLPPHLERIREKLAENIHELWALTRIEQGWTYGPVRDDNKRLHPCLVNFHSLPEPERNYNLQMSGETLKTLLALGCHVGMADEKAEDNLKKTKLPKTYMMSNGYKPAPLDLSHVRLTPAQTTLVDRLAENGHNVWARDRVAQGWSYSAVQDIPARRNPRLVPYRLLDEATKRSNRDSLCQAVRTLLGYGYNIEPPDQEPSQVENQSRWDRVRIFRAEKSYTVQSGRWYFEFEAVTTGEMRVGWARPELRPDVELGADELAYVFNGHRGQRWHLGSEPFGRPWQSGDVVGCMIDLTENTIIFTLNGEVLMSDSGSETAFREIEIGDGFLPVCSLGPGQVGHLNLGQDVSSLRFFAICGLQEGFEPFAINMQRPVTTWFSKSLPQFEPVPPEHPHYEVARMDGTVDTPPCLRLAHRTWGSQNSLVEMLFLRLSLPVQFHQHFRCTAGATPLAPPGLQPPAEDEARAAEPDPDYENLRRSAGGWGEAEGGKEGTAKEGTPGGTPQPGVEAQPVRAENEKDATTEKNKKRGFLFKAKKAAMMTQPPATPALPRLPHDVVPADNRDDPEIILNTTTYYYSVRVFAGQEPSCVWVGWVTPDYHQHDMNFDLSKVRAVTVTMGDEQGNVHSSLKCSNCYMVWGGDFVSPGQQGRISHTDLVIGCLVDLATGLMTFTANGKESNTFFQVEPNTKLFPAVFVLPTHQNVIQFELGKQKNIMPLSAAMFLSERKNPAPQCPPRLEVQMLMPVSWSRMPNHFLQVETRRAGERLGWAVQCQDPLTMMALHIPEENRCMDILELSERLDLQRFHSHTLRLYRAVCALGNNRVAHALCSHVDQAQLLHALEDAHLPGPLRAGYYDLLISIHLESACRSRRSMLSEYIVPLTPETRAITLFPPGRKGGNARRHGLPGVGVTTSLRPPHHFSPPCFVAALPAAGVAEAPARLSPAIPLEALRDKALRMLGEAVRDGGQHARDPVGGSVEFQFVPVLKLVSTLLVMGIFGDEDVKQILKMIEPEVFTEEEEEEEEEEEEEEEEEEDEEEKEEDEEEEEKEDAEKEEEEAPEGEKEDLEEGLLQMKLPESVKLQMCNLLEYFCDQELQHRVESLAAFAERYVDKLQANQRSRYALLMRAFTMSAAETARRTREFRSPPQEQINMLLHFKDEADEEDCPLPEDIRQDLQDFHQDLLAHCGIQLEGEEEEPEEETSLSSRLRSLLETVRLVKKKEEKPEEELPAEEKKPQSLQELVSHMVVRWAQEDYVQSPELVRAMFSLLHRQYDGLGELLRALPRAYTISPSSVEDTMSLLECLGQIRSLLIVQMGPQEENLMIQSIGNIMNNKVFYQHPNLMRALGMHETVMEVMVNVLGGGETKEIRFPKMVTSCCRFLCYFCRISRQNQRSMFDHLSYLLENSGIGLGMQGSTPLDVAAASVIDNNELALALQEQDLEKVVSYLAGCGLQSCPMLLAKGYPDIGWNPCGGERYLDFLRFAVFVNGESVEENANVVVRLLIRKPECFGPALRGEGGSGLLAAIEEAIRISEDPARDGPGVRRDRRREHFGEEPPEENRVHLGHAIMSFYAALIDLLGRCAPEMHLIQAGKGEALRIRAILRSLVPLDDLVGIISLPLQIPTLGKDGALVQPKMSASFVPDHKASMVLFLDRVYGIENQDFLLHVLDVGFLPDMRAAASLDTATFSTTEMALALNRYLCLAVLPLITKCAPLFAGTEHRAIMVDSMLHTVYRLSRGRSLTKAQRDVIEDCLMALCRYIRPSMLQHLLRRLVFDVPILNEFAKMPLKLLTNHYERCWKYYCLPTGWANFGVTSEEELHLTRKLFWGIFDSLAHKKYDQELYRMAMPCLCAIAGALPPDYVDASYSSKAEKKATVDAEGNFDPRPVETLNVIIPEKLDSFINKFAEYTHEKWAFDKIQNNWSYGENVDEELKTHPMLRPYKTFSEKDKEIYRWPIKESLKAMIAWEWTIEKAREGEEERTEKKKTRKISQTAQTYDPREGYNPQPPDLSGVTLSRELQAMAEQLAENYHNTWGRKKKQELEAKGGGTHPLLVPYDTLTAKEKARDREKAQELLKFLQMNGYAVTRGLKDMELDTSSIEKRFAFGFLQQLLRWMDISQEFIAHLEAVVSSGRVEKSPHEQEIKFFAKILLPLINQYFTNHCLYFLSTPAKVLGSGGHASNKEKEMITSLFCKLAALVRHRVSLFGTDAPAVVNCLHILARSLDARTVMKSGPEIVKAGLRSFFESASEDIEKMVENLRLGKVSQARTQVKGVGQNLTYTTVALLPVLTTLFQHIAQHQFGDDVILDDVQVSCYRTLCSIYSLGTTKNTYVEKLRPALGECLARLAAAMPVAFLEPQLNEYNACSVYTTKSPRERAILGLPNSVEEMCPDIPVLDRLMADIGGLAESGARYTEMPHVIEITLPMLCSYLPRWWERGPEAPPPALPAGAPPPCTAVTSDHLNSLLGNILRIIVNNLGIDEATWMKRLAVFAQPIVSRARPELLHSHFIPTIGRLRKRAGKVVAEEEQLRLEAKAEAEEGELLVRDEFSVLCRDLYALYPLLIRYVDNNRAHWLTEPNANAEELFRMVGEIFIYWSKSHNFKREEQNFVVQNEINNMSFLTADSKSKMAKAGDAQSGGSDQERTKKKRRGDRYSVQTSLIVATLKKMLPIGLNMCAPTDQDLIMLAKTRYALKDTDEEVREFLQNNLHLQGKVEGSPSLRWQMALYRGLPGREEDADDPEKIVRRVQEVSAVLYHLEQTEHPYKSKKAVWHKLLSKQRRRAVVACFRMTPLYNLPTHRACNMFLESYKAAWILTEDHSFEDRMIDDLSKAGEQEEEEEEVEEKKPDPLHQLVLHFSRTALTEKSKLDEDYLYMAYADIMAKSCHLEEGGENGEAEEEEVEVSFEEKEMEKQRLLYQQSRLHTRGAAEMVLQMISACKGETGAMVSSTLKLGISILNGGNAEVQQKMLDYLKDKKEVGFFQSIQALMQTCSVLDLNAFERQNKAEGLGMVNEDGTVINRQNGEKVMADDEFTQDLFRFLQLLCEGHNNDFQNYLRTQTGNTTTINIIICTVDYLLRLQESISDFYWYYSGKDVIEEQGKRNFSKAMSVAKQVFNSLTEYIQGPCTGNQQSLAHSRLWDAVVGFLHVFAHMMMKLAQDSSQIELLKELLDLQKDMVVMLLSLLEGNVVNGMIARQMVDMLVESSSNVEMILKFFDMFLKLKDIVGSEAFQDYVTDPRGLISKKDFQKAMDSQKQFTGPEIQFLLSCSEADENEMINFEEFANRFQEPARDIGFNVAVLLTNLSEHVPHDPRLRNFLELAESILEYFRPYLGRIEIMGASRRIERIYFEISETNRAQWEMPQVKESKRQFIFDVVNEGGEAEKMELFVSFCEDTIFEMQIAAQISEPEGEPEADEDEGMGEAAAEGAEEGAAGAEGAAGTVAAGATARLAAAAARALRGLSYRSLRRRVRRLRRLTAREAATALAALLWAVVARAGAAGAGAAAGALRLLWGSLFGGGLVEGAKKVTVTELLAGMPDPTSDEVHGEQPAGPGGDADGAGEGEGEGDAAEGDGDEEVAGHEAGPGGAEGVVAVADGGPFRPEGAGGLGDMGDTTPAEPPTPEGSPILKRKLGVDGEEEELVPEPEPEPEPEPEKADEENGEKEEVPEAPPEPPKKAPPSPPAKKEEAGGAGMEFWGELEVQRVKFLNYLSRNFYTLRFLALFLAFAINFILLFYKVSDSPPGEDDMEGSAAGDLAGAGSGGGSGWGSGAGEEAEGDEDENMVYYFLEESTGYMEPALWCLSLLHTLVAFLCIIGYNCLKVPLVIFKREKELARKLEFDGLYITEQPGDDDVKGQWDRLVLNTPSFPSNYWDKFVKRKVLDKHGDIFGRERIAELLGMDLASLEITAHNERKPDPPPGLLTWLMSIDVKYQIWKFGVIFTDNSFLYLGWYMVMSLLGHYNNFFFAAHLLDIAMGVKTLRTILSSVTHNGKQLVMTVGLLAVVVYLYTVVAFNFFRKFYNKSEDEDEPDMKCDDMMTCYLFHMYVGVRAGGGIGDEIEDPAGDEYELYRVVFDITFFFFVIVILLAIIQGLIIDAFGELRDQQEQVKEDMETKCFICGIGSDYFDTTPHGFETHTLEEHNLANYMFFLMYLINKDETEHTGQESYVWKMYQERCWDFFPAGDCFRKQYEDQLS
UniProt Q15165: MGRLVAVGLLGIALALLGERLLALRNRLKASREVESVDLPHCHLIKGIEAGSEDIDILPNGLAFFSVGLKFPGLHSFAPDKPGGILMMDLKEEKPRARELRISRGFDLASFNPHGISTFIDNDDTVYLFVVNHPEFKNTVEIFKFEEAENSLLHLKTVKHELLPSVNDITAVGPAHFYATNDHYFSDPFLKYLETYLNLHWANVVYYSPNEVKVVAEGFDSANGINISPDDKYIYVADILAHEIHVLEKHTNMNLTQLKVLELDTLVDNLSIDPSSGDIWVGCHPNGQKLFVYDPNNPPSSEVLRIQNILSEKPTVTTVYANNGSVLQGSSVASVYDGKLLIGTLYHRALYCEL

Assay [2] concerns the target T2, human carboxylesterase CES1 (Homo sapiens, UniProt P23141).
T2 construct: made in house; host or cells: baculovirus-insect cells
T2 sequence (P23141 18-567): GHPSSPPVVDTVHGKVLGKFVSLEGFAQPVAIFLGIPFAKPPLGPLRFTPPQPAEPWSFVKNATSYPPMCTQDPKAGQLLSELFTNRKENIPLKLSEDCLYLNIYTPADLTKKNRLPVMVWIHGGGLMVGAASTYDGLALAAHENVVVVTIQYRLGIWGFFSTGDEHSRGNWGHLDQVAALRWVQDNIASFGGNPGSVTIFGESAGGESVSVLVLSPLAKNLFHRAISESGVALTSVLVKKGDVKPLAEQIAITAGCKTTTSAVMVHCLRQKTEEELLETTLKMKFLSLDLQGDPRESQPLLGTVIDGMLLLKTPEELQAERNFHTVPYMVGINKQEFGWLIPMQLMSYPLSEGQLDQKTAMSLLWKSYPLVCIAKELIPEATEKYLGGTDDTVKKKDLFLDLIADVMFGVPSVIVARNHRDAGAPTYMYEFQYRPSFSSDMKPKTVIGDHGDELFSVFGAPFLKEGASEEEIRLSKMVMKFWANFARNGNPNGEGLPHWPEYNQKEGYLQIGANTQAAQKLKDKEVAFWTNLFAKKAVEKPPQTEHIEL
The assay is classed as biochemical.

The target of assay [3] is T3, human carboxylesterase CES2 (Homo sapiens, UniProt O00748).
T3 construct: made in house; host or cells: baculovirus-insect cells
T3 sequence (O00748 27-559): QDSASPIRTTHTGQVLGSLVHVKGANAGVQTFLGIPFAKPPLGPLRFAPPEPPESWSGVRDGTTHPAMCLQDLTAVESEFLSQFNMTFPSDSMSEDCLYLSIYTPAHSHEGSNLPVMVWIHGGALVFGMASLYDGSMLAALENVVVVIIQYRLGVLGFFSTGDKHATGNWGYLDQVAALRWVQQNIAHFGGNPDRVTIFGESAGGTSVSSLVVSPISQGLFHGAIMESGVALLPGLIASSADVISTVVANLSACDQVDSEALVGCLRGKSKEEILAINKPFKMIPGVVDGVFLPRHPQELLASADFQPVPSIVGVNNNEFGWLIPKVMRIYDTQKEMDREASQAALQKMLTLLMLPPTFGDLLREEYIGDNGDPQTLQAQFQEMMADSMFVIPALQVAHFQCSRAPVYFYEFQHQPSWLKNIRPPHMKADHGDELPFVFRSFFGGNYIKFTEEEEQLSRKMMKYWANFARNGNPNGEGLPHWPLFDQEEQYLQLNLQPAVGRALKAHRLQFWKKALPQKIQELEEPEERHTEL
Description: biochemical.

Assay [4] deals with T4, paraoxonase 2 (PON2) (Homo sapiens, UniProt Q15165).
T4 construct: made in house; host or cells: baculovirus-insect cells (microsomal preparation)
As to the kind of experiment: biochemical.

As usually defined, the IC50 is the concentration at which inhibition is half-maximal. Lower therefore signals inhibition by little substance.

Consider `CCOP(=S)(OCC)Oc1nc(Cl)c(Cl)cc1Cl` [Chlorpyrifos, chlorpyrifos], for which the “increase of [3H]Ry binding to RyR1” value in assay [1] is approximately 3 fold. `O=C1C(Cl)=C(Cl)C(=O)C(Cl)=C1Cl` [chloranil] showed an IC50 in assay [1] of less than 1 µM. With `ClC(Cl)=C(c1ccc(Cl)cc1)c1ccccc1Cl` [o,p-DDE, dichlorodiphenyldichloroethylene], the “increase of [3H]Ry binding to RyR1” value in assay [1] is recorded as approximately 3 fold. `Oc1cc(Cl)ccc1Oc1ccc(Cl)cc1Cl` [Triclosan, triclosan]: the “mechanism of CES1 inhibition” value in assay [2] is “competitive mechanism”. For the same compound, the IC50 in assay [3] is 0.58 ± 0.03 µM. Consider `CCOP(=S)(OCC)SCSc1ccc(Cl)cc1` [Carbophenothion, carbophenothion], for which 0.11 ± 0.006 µM corresponded to half-maximal inhibition in assay [4] (IC50).

`CCCCSP(SCCCC)SCCCC` [Tributyl phosphorotrithioite] returned an IC50 in assay [4] of 0.12 ± 0.01 µM.

Turning to `CC1(C)C(C=C(Cl)Cl)C1C(=O)OC(C#N)c1cccc(Oc2ccccc2)c1` (stereo not drawn) [α-cypermethrin], the “effect on [3H]Ry binding to RyR1 (counterscreen)” value in assay [1] is “no significant effect”. On to `CC1(C)[C@H](C(=O)O[C@H](C#N)c2cccc(Oc3ccccc3)c2)[C@@H]1C=C(Br)Br` [deltamethrin], for which the “effect on [3H]Ry binding to RyR1 (counterscreen)” value in assay [1] is given as “no significant effect”. In assay [4], `O=P(Oc1ccccc1)(Oc1ccccc1)Oc1ccccc1` [TPP, triphenyl phosphate] had an IC50 of 0.085 ± 0.008 µM.

The values are drawn from paper PMC2799460 (Environmental Health Perspectives, 2009).
